Measurements from patent publication US20220289848A1 (published 2022).
Where a chain is given by its changes, count along the chain named.

B1: PDL1a-E-LC (bispecific antibody)
heavy: not shown
light: EIVLTQSPATLSLSPGERATLSCRASENVGTYISWYQQKPGQAPRLLIYGASNRYTGIPARFSGSGSGTDFTLTISSLEPEDFAVYYCGESYGHLYTFGGGTKVEIKRTVAAPSVFIFPPSDEQLKSGTASVVCLLNNFYPREAKVQWKVDNALQSGNSQESVTEQDSKDSTYSLSSTLTLSKADYEKHKVYACEVTHQGLSSPVTKSFNRGECEPKSSDKTHTSPPSPEVQLVESGGGLVQPGGSLRLSCAASGRTFVTYGMGWFRQAPGKGREFVSAISWSGSMTSYGDSVKGRFTISRDNAKNTLYLQMNSLRPEDTAVYYCAAALGAVVYTTREPYTYWGQGTLVTVSS
B2: PDL1a-G15-LC (bispecific antibody)
heavy: not shown
light: EIVLTQSPATLSLSPGERATLSCRASENVGTYISWYQQKPGQAPRLLIYGASNRYTGIPARFSGSGSGTDFTLTISSLEPEDFAVYYCGESYGHLYTFGGGTKVEIKRTVAAPSVFIFPPSDEQLKSGTASVVCLLNNFYPREAKVQWKVDNALQSGNSQESVTEQDSKDSTYSLSSTLTLSKADYEKHKVYACEVTHQGLSSPVTKSFNRGECGGGGSGGGGSGGGGSEVQLVESGGGLVQPGGSLRLSCAASGRTFVTYGMGWFRQAPGKGREFVSAISWSGSMTSYGDSVKGRFTISRDNAKNTLYLQMNSLRPEDTAVYYCAAALGAVVYTTREPYTYWGQGTLVTVSS
B3: PDL1c-E-LC (bispecific antibody)
heavy: not shown
light: EIVLTQSPATLSLSPGERATLSCRASENVGTYISWYQQKPGQAPRLLIYGASNRYTGIPARFSGSGSGTDFTLTISSLEPEDFAVYYCGESYGHLYTFGGGTKVEIKRTVAAPSVFIFPPSDEQLKSGTASVVCLLNNFYPREAKVQWKVDNALQSGNSQESVTEQDSKDSTYSLSSTLTLSKADYEKHKVYACEVTHQGLSSPVTKSFNRGECEPKSSDKTHTSPPSPEVQLVESGGGLVQPGGSLRLSCAASGRTFITYAIGWFRQAPGKGREFVSAISWSGSMTSYADSVKGRFTISRDNAKNTLYLQMNSLRPEDTAVYYCAAHRGAIAPIAQSVYTNWGQGTLVTVSS
B4: PDL1b-E-LC (bispecific antibody)
heavy: not shown
light: B1 light with M286S
B5: PDL1a-E-LN (bispecific antibody)
heavy: not shown
light: EVQLVESGGGLVQPGGSLRLSCAASGRTFVTYGMGWFRQAPGKGREFVSAISWSGSMTSYGDSVKGRFTISRDNAKNTLYLQMNSLRPEDTAVYYCAAALGAVVYTTREPYTYWGQGTLVTVSSEPKSSDKTHTSPPSPEIVLTQSPATLSLSPGERATLSCRASENVGTYISWYQQKPGQAPRLLIYGASNRYTGIPARFSGSGSGTDFTLTISSLEPEDFAVYYCGESYGHLYTFGGGTKVEIKRTVAAPSVFIFPPSDEQLKSGTASVVCLLNNFYPREAKVQWKVDNALQSGNSQESVTEQDSKDSTYSLSSTLTLSKADYEKHKVYACEVTHQGLSSPVTKSFNRGEC
B6: PDL1b-E-LN (bispecific antibody)
heavy: not shown
light: B5 light with M57S
B7: PDL1a-G15-LN (bispecific antibody)
heavy: not shown
light: EVQLVESGGGLVQPGGSLRLSCAASGRTFVTYGMGWFRQAPGKGREFVSAISWSGSMTSYGDSVKGRFTISRDNAKNTLYLQMNSLRPEDTAVYYCAAALGAVVYTTREPYTYWGQGTLVTVSSGGGGSGGGGSGGGGSEIVLTQSPATLSLSPGERATLSCRASENVGTYISWYQQKPGQAPRLLIYGASNRYTGIPARFSGSGSGTDFTLTISSLEPEDFAVYYCGESYGHLYTFGGGTKVEIKRTVAAPSVFIFPPSDEQLKSGTASVVCLLNNFYPREAKVQWKVDNALQSGNSQESVTEQDSKDSTYSLSSTLTLSKADYEKHKVYACEVTHQGLSSPVTKSFNRGEC

Target: CD47 expressed on CHO-K1 cells (UniProt Q08722 19-323)
Experiment: FACS

Binder | EC50
B1 | 0.366 nM
B2 | 0.349 nM
B3 | 0.286 nM
B4 | 0.305 nM
B5 | 1.32 nM
B6 | 1.01 nM
B7 | 1.06 nM
